Values of other authors as cited in US4595695A, “1'-ethoxycarbonyloxyethyl ester of valproic acid, its preparation and pharmaceutical compositions containing it” (Teva Pharmaceutical Industries Ltd., priority 1983, dated 1986).

Conditions: man versus dog; cited from earlier work

## CCCC(CCC)C(=O)O [VPA, di-n-propylacetic acid]
  VPA half-life time in man relative to dog: three to eight times longer
